Data on one molecule can be found in ChEMBL document CHEMBL1126846, “Two new unsaturated fatty acid ethanolamides in brain that bind to the cannabinoid receptor” (J Med Chem, 1993).

The chains behind the UniProt entries cited, without tags or fusion partners. Where a name states a change or a piece, a line headed by the entry shows the natural chain unless it says otherwise.
UniProt P47746: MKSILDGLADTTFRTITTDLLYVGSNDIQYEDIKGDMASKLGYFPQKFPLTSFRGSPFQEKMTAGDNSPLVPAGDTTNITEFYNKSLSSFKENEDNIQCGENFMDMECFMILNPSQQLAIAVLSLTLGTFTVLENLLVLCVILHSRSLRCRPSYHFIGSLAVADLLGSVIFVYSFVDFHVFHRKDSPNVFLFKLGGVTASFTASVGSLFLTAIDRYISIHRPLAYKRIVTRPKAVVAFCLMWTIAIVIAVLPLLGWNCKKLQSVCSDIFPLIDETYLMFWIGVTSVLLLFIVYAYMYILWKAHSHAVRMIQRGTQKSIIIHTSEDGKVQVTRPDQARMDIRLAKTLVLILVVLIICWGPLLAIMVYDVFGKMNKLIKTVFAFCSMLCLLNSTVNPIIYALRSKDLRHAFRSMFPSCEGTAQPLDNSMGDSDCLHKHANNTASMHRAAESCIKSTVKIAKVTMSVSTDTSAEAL
UniProt P47936: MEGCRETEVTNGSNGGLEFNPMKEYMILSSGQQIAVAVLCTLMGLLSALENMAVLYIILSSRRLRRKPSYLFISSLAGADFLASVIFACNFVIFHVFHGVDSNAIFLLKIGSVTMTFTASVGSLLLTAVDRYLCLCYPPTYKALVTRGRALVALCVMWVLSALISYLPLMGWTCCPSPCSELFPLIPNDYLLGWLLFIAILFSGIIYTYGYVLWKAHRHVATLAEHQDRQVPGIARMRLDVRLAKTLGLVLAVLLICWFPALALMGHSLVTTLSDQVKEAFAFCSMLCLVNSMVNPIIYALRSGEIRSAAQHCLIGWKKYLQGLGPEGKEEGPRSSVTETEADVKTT

The assay addresses Cannabinoid receptor (Mus musculus, UniProt P47746+P47936). Description: Ability to displace [3H]HU-243 binding to cannabinoid receptor in synaptosomal membrane. Format: cell membranes.

Molecules are shown by their SMILES.

As usually defined, the Ki is the dissociation constant of the complex between target and ligand, obtained from inhibition or displacement. A low value points to tighter binding. Regarding `CCCCC/C=C\C/C=C\C/C=C\C/C=C\CCCC(=O)NCCO` [ANANDAMIDE], the Ki is on record as 52 nM.
